Assay results published in ChEMBL document CHEMBL3992538, “Hybrids of thienopyrimidinones and thiouracils as anti-tubercular agents: SAR and docking studies” (Eur J Med Chem, 2017).

Columns and labels:
Type in all cases: toxicity, cell-based
[1] = Selectivity index, ratio of GI50 for human HeLa cells to MIC for dormant stage of Mycobacterium tuberculosis H37Ra ATCC 25177 infected in human THP1 cells; details: read-out: Selectivity Index
Method in brief: (§1)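 Selectivity index is the cytotoxic GI50 against the named human cell line divided by the antimycobacterial value. Activity counted as specific when SI >10.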

[2] = Selectivity index, ratio of GI50 for human PANC1 cells to MIC for dormant stage of Mycobacterium tuberculosis H37Ra ATCC 25177 infected in human THP1 cells; details: PANC-1 cells, read-out: Selectivity Index; method in brief: as §1
[3] = Selectivity index, ratio of GI50 for human A549 cells to MIC for dormant stage of Mycobacterium tuberculosis H37Ra ATCC 25177 infected in human THP1 cells; details: read-out: Selectivity Index; method in brief: as §1

Measured: selectivity ratio

CO[C@H]1/C=C/O[C@@]2(C)Oc3c(C)c(O)c4c(O)c(c(/C=N/N5CCN(C)CC5)c(O)c4c3C2=O)NC(=O)/C(C)=C\C=C\[C@H](C)[C@H](O)[C@@H](C)[C@@H](O)[C@@H](C)[C@H](OC(C)=O)[C@@H]1C [RIFAMPIN]
133: [1] | [2] | [3]
